{"source": "patent US20210145944", "key": {"[1]": {"target": "α-synuclein (UniProt P37840)"}, "[2]": {"target": "Tau-410 (UniProt P10636)"}, "[3]": {"target": "TDP-43 (UniProt Q13148)"}, "[4]": {"target": "p-Tau-441 (UniProt P10636)"}, "[5]": {"target": "Tau-441 (P301L) (UniProt P10636)"}}}
{"substance": "kallikrein-6 (KLK6) activated by lysyl endopeptidase", "values": [{"measurement": "% digested at 0 min", "setting": "[1]", "result": 0, "unit": "%"}, {"measurement": "% digested at 1 min", "setting": "[1]", "result": 77, "unit": "%"}, {"measurement": "% digested at 5 min", "setting": "[1]", "result": 80, "unit": "%"}, {"measurement": "% digested at 60 min", "setting": "[1]", "result": 72, "unit": "%"}, {"measurement": "digestion on immobilized protease column (Table 4)", "setting": "[1]", "result": "degraded"}, {"measurement": "% digested at 0 min", "setting": "[2]", "result": 0, "unit": "%"}, {"measurement": "% digested at 1 min", "setting": "[2]", "result": 31, "unit": "%"}, {"measurement": "% digested at 5 min", "setting": "[2]", "result": 56, "unit": "%"}, {"measurement": "% digested at 60 min", "setting": "[2]", "result": 74, "unit": "%"}, {"measurement": "digestion on immobilized protease column (Table 4)", "setting": "[2]", "result": "degraded"}, {"measurement": "% digested at 0 min", "setting": "[3]", "result": 0, "unit": "%"}, {"measurement": "% digested at 1 min", "setting": "[3]", "result": 1, "unit": "%"}, {"measurement": "% digested at 5 min", "setting": "[3]", "result": 18, "unit": "%"}, {"measurement": "% digested at 60 min", "setting": "[3]", "result": 29, "unit": "%"}, {"measurement": "digestion on immobilized protease column (Table 4)", "setting": "[3]", "result": "degraded"}, {"measurement": "% digested at 0 min, band B1", "setting": "[4]", "result": 0, "unit": "%"}, {"measurement": "% digested at 0 min, band B2", "setting": "[4]", "result": 0, "unit": "%"}, {"measurement": "% digested at 1 min, band B1", "setting": "[4]", "result": 74, "unit": "%"}, {"measurement": "% digested at 1 min, band B2", "setting": "[4]", "result": 63, "unit": "%"}, {"measurement": "% digested at 5 min, band B1", "setting": "[4]", "result": 98, "unit": "%"}, {"measurement": "% digested at 5 min, band B2", "setting": "[4]", "result": 95, "unit": "%"}, {"measurement": "% digested at 60 min, band B1", "setting": "[4]", "result": 97, "unit": "%"}, {"measurement": "% digested at 60 min, band B2", "setting": "[4]", "result": 92, "unit": "%"}, {"measurement": "digestion on immobilized protease column (Table 4)", "setting": "[4]", "result": "degraded"}, {"measurement": "% digested at 0 min", "setting": "[5]", "result": 0, "unit": "%"}, {"measurement": "% digested at 1 min", "setting": "[5]", "result": 68, "unit": "%"}, {"measurement": "% digested at 5 min", "setting": "[5]", "result": 91, "unit": "%"}, {"measurement": "% digested at 60 min", "setting": "[5]", "result": 79, "unit": "%"}, {"measurement": "digestion on immobilized protease column (Table 4)", "setting": "[5]", "result": "degraded"}]}
